From patent US9011830B2, “Poly(CPP-SA) anhydride as a reactive barrier matrix against percutaneous absorption of toxic chemicals” (dated 2015) come the findings set out here.

Where “and” joins values, the source holds several entries; their conditions need not be identical. Equal entries are not always repeated.

The nature of series [1]: Solubility of nitrofurazone in the receptor phase. To be noted: distilled water, acetonitrile and triethylamine buffer (79:20:1).
Series [2] is described as follows: Ex vivo permeation of nitrofurazone through rat skin in Franz-type diffusion cells, with or without LMWP/HMWP film. Particulars: untreated (control) rat skin.
Series [3] in a line: Ex vivo permeation of nicotine through rat skin in Franz-type diffusion cells, with or without LMWP/HMWP film. Particulars: untreated (control) rat skin.
Series [4] can be described thus: Ex vivo permeation of nitroglycerin through rat skin in Franz-type diffusion cells, with or without LMWP/HMWP film. To be noted: untreated (control) rat skin.
Setting [5] is: nitrofurazone 200 μg/ml aqueous donor.

For the compound `NC(=O)N/N=C/c1ccc([N+](=O)[O-])o1`, the “Solubility of nitrofurazone in receptor phase” value in series [1] worked out at 668 µg/mL. Also, the Flux in series [2] (nitrofurazone 100 μg/ml aqueous solution) is 5.11±1.39 μg/cm^2/hr; in series [2] (setting [5]), 11.4±1.6 μg/cm^2/hr and 11.44±1.62 μg/cm^2/hr; in series [2] (saturated nitrofurazone aqueous solution) it was 18.24±1.51 μg/cm^2/hr. The Lag-time in series [2] (setting [5]) was 3.5 ± 0.4 h and 3.53 ± 0.45 h. Further, the “Q24: cumulative amount of nitrofurazone permeated after 24 hr” value in series [2] (setting [5]) is given as 205.41 ± 28.02 μg/cm^2. Besides, the Lag time was determined as 4.17 ± 0.62 h in series [2] (nitrofurazone 100 g/ml (so in the source)) and 1.44 ± 0.56 h in series [2] (saturated nitrofurazone).
As for `CN1CCCC1c1cccnc1` (stereo not shown), the Flux in series [3] (nicotine 500 μg/ml aqueous donor, 32° C.) is 40.00±6.97 μg/cm^2/hr. Moreover, in series [3] (nicotine 500 μg/ml), the “Q10: cumulative amount of nicotine permeated within 10 hrs” value is given as 319.82 ± 52.64 g/cm^2 and the “kp: permeability coefficient” value is 8.00 ± 1.39 cm/hr * 10^2.
`O=[N+]([O-])OCC(CO[N+](=O)[O-])O[N+](=O)[O-]` registered a Flux in series [4] (nitroglycerin 200 μg/ml aqueous donor) of 21.42 ± 5.77 μg/cm^2/hr. Besides, in series [4] (nitroglycerin 200 μg/ml), the “Q10: cumulative amount of nitroglycerin permeated within 10 hrs” value came out at 110.20 ± 18.47 μg/cm^2.
